Measurements reported in US20260384450A1, “MACROCYCLIC AMINOPYRIDINE COMPOUNDS AS EGFR INHIBITORS” (published 2026).

Protein sequences, listed by entry. Tags and fused reporters are not part of them. Lines headed by an entry give the natural chain unless they say otherwise; changes in a name come on top. Chains listed by the source or under a name are the forms on record and can include a tag or linker. Residues count along the entry.
UniProt P00533, 25-1210 limits assumed: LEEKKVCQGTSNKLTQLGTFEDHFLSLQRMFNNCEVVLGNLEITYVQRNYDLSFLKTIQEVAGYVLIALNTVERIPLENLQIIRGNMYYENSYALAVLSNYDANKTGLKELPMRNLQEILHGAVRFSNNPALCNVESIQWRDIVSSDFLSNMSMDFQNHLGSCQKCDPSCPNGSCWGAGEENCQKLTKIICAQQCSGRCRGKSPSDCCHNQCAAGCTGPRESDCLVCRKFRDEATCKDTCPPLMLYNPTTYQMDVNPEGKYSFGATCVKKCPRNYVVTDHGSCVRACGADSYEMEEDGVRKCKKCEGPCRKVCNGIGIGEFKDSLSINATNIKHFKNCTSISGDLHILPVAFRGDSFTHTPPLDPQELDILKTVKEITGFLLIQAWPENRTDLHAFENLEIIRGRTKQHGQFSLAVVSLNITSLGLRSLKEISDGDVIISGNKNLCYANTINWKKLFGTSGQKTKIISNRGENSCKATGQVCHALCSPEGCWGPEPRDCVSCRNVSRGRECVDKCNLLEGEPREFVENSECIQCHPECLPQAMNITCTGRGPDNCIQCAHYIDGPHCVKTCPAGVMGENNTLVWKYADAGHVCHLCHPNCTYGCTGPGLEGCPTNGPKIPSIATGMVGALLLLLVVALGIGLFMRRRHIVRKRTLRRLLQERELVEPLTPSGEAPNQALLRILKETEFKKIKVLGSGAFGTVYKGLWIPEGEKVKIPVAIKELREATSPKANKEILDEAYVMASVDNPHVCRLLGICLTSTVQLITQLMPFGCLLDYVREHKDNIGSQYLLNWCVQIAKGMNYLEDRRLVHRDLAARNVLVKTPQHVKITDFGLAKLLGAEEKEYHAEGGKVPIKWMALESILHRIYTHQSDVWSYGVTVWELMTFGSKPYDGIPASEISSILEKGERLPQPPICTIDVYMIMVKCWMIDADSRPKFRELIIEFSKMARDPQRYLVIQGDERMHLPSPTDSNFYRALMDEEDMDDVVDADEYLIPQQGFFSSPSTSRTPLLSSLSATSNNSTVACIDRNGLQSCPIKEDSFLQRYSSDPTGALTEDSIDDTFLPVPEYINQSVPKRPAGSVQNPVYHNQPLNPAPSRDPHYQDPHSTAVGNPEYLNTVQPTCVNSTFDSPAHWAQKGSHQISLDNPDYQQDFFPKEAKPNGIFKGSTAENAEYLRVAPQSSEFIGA
UniProt P00533, 25-1210 C797S/L858R limits assumed: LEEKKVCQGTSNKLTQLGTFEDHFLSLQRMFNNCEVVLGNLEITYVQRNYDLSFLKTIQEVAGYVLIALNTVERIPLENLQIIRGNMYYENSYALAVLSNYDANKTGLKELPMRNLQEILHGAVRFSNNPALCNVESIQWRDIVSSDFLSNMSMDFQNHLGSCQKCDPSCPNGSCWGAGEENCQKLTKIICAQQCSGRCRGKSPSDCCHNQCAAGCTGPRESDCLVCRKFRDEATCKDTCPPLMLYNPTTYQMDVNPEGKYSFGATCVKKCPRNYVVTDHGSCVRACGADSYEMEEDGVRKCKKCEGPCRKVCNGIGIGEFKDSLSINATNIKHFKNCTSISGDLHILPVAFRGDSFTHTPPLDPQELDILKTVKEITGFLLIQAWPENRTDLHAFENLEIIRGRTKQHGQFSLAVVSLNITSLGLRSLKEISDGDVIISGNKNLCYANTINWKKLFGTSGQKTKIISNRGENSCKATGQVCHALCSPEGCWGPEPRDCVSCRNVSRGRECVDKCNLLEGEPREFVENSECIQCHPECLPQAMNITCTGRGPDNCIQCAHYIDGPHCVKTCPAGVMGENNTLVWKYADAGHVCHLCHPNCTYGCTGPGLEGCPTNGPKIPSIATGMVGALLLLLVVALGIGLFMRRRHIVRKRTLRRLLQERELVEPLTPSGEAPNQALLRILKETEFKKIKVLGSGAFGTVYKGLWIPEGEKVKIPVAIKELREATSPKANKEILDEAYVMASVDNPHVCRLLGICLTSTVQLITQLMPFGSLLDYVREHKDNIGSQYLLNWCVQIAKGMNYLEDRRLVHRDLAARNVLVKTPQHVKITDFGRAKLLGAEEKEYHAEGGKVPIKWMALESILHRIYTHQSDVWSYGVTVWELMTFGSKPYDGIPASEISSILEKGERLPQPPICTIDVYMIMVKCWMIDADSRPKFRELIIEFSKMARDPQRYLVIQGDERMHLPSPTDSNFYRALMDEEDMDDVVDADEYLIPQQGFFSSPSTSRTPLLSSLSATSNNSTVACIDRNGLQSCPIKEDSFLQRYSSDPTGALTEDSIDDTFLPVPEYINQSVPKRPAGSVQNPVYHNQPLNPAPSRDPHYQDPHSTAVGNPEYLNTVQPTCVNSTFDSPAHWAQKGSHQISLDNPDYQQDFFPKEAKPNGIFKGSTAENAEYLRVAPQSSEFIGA
UniProt P00533, 25-1210 T790M/C797S/L858R limits assumed: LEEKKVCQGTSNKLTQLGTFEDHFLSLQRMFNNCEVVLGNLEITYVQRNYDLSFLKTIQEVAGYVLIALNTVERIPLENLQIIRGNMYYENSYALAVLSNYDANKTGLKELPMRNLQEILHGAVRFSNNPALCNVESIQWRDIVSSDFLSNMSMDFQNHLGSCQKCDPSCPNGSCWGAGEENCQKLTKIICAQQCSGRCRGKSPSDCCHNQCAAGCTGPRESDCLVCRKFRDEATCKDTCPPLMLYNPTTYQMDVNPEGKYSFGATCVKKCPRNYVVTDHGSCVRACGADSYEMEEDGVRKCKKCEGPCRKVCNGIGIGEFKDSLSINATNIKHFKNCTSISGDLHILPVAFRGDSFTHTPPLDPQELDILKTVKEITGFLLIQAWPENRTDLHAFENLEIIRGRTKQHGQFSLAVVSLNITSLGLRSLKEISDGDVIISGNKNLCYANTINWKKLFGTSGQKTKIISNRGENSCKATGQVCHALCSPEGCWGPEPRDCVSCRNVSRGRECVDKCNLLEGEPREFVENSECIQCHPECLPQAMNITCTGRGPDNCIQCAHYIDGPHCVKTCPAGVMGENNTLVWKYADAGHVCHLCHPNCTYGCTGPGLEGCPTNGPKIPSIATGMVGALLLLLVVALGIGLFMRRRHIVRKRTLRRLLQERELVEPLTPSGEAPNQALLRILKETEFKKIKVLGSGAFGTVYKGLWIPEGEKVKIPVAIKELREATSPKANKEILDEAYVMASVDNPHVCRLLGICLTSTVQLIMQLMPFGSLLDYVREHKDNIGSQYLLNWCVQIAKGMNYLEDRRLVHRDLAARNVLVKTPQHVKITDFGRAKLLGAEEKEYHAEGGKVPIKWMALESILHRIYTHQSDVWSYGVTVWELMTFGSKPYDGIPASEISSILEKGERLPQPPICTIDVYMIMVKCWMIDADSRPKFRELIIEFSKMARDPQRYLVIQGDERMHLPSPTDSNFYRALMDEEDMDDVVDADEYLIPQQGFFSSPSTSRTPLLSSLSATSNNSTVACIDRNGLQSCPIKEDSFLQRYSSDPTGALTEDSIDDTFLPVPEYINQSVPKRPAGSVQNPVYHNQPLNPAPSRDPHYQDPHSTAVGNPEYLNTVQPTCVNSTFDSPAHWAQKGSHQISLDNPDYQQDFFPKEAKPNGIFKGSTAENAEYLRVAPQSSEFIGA
UniProt P00533, with tags, fused parts or gaps DEL746-750/C797S limits assumed: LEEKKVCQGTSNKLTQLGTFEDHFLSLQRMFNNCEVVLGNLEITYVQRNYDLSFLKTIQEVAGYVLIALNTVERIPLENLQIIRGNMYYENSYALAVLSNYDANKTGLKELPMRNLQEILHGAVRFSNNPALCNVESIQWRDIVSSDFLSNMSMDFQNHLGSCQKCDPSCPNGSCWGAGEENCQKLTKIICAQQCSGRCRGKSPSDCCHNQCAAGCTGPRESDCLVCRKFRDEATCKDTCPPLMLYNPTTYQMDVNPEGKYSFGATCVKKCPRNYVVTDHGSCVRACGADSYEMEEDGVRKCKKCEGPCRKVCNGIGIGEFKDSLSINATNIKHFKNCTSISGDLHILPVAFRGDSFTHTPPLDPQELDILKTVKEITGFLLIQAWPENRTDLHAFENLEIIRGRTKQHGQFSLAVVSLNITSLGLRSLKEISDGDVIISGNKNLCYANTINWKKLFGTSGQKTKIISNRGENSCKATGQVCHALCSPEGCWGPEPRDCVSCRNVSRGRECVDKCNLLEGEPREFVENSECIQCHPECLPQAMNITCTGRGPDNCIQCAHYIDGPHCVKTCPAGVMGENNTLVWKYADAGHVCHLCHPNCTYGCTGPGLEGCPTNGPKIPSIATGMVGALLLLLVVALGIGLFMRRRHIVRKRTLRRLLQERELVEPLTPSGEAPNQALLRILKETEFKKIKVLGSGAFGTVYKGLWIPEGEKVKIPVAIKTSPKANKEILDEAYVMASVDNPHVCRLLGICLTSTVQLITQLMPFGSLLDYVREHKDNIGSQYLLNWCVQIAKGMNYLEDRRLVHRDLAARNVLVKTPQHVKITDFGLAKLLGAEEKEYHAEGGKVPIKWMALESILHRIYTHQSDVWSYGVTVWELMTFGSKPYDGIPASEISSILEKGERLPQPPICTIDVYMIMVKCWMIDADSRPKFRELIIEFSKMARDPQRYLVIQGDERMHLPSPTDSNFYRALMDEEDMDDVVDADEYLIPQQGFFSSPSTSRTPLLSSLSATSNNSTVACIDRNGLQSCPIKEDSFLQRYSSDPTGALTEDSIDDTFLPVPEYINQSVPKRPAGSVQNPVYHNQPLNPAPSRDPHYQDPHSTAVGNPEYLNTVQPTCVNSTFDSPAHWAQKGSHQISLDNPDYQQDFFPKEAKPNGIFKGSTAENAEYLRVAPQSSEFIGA
UniProt P00533, with tags, fused parts or gaps DEL746-750/T790M/C797S limits assumed: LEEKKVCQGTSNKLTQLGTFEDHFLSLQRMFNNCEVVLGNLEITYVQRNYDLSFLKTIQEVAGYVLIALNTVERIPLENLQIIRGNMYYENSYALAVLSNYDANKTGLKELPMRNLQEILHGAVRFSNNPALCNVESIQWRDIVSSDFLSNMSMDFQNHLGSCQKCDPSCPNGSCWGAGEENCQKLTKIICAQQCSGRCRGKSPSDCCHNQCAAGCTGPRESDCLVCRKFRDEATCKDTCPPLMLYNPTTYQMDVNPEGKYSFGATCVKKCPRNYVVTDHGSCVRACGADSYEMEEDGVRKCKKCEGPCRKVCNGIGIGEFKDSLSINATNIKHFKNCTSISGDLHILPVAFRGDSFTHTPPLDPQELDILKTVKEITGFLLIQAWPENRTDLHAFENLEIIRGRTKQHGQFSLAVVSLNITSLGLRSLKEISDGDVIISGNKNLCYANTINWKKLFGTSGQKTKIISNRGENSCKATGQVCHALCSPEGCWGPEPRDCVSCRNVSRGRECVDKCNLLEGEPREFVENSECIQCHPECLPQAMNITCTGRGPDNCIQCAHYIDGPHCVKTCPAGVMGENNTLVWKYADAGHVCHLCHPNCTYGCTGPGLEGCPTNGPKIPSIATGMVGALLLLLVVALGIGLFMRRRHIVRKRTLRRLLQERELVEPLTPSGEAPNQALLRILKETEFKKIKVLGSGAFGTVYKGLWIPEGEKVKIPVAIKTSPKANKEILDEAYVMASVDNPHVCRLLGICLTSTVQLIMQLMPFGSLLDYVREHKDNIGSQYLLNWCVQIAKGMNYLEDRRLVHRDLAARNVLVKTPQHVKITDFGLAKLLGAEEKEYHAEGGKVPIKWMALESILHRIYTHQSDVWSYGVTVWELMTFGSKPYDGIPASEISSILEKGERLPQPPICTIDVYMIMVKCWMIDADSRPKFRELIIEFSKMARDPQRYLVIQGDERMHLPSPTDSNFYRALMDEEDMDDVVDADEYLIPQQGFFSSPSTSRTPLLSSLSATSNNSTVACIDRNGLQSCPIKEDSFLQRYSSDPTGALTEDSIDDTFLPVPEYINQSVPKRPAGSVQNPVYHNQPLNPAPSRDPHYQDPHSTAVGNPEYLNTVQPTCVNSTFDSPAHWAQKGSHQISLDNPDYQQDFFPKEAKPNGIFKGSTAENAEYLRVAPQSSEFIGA

What was measured:
EGFR WT = EGFR WT (Homo sapiens, UniProt P00533); assay: Biochemical EGFR kinase assay (Lance Ultra TR-FRET), wildtype
Procedure: (§1) Biochemical EGFR kinase assays were conducted using Lance Ultra time-resolved fluorescence resonance energy transfer (TR-FRET) technology from Perkin-Elmer. Compounds of the invention were initially diluted to 20 mM in 100% DMSO for storage and made into kinase buffer solution to create a compound concentration ranging from 0.003 μM and 10 μM.
(§2) Briefly, each EGFR enzyme wildtype (EGFR WT), double mutant [del19/C797S (EGFR D19CS) and L858R/C797S (EGFR LRCS)], triple mutant [del19/T790M/C797S (EGFR D19TMCS) and L858R/T790M/C797S (EGFR LRTMCS)], serial diluted EGFR inhibitors, substrate of ULight-poly-GT peptide (PerkinElmer; TRF0100-M) and different concentrations of ATP (Km and 100 μM final assay concentration) were mixed in kinase assay buffer (50 mM HEPES pH 7.4, 10 mM MgCl2, 1 mM EGTA, 2 mM DTT and 0.01% Tween-20) and were added to a 384-well plate (Optiplate™ 384, white, PerkinElmer; 6007290).
(§3) Each kinase reactions were incubated at room temperature for 1 hour and then stopped by the addition of 4 μL of stop solution (10 mM EDTA). The specific Europium-labeled-anti-phosphopeptide antibody (PerkinElmer, AD0069) diluted in LANCE detection buffer was then added to a final concentration of 2 nM. After 60 minutes incubation at room temperature the LANCE signal was measured on an EnVision Multilabel Reader (Perkin-Elmer). Excitation wavelength was set at 320 nm and emission monitored at 615 nm (donor) and 665 nm (acceptor). The IC50 values were determined using GraphPad prism software (GraphPad Software, Inc., San Diego, CA, USA).

EGFR LRCS (L858R/C797S) = EGFR LRCS (L858R/C797S) (Homo sapiens, UniProt P00533, C797S/L858R); assay: Biochemical EGFR kinase assay (Lance Ultra TR-FRET), double mutant L858R/C797S
Procedure: as §1, §2, §3

[1] = molecular target: EGFR LRTMCS (L858R/T790M/C797S) (Homo sapiens, UniProt P00533, C797S/L858R/T790M); assay: Biochemical EGFR kinase assay (Lance Ultra TR-FRET), triple mutant L858R/T790M/C797S
Procedure: as §1, §2, §3

EGFR D19CS (del19/C797S) = EGFR D19CS (del19/C797S) (Homo sapiens, UniProt P00533, C797S/DEL746-750); assay: Biochemical EGFR kinase assay (Lance Ultra TR-FRET), double mutant del19/C797S
Procedure: as §1, §2, §3

[2] = molecular target: EGFR D19TMCS (del19/T790M/C797S) (Homo sapiens, UniProt P00533, C797S/DEL746-750/T790M); assay: Biochemical EGFR kinase assay (Lance Ultra TR-FRET), triple mutant del19/T790M/C797S
Procedure: as §1, §2, §3

[3] = read-out: EGFR WT IC50, ATP 1 mM
[4] = read-out: EGFR LRCS IC50, ATP 1 mM
[5] = read-out: EGFR LRCS IC50, ATP Km
[6] = read-out: EGFR LRTMCS IC50, ATP 1 mM
[7] = read-out: EGFR LRTMCS IC50, ATP Km
[8] = read-out: EGFR D19CS IC50, ATP 1 mM
[9] = read-out: EGFR D19CS IC50, ATP Km
[10] = read-out: EGFR D19TMCS IC50, ATP 1 mM
[11] = read-out: EGFR D19TMCS IC50, ATP Km

Row | SMILES | IC50 (EGFR WT; [3]) | IC50 (EGFR WT; read-out: EGFR WT IC50, ATP Km) | IC50 (EGFR LRCS (L858R/C797S); [4]) | IC50 (EGFR LRCS (L858R/C797S); [5]) | IC50 [1, 6] | IC50 [1, 7] | IC50 (EGFR D19CS (del19/C797S); [8]) | IC50 (EGFR D19CS (del19/C797S); [9]) | IC50 [2, 10] | IC50 [2, 11] | IC50 (EGFR WT; read-out: IC50, EGFR WT, 1 mM, ATP 1 mM, EGFR wildtype) | IC50 (EGFR WT; read-out: IC50, EGFR WT, Km, ATP at Km, EGFR wildtype) | IC50 (EGFR LRCS (L858R/C797S); read-out: IC50, EGFR-LRCS, 1 mM, ATP 1 mM, EGFR L858R/C797S) | IC50 (EGFR LRCS (L858R/C797S); read-out: IC50, EGFR-LRCS, Km, ATP at Km, EGFR L858R/C797S) | IC50 ([1]; read-out: IC50, EGFR LRTMCS, 1 mM, ATP 1 mM, EGFR L858R/T790M/C797S) | IC50 ([1]; read-out: IC50, EGFR LRTMCS, Km, ATP at Km, EGFR L858R/T790M/C797S) | IC50 (EGFR D19CS (del19/C797S); read-out: IC50, EGFR-D19CS, 1 mM, ATP 1 mM, EGFR del19/C797S) | IC50 (EGFR D19CS (del19/C797S); read-out: IC50, EGFR-D19CS, Km, ATP at Km, EGFR del19/C797S) | IC50 ([2]; read-out: IC50, EGFR D19TMCS, Km, ATP at Km, EGFR del19/T790M/C797S)
1 | C[C@H]1CCOc2c(cnn2C)-c2nccc(n2)Nc2cc(c(-c3ncc(CN4CC(F)(F)C4)cc3F)cn2)N1 | > 1 µM | 0.01 to 0.1 µM | 0.1 to 1 µM | < 0.01 µM | < 0.01 µM | < 0.01 µM | 0.01 to 0.1 µM | 0.01 to 0.1 µM | < 0.01 µM | < 0.01 µM | – | – | – | – | – | – | – | – | –
2 | Cc1nn(C)c2c1-c1nccc(n1)Nc1cc(c(-c3ccc(OC(F)F)cn3)cn1)N[C@@H](C)CCO2 | > 1 µM | 0.01 to 0.1 µM | 0.01 to 0.1 µM | < 0.01 µM | < 0.01 µM | < 0.01 µM | 0.01 to 0.1 µM | < 0.01 µM | < 0.01 µM | < 0.01 µM | – | – | – | – | – | – | – | – | –
3 | Cc1nn(C)c2c1-c1nccc(n1)Nc1cc(c(-c3cc(OC(F)F)ccn3)cn1)N[C@@H](C)CCO2 | > 1 µM | 0.01 to 0.1 µM | > 1 µM | < 0.01 µM | < 0.01 µM | < 0.01 µM | 0.01 to 0.1 µM | < 0.01 µM | < 0.01 µM | < 0.01 µM | – | – | – | – | – | – | – | – | –
4 | Cn1ncc2c1OCC(F)(F)CNc1cc(ncc1-c1ccn(C(F)F)n1)Nc1ccnc-2n1 | > 1 µM | 0.1 to 1 µM | > 1 µM | > 1 µM | 0.01 to 0.1 µM | < 0.01 µM | > 1 µM | 0.1 to 1 µM | 0.01 to 0.1 µM | < 0.01 µM | – | – | – | – | – | – | – | – | –
5 | C[C@@H]1CCOc2c(cnn2C)-c2nccc(n2)Nc2cc(c(-c3ccn(CC(F)(F)F)n3)cn2)N1 | > 1 µM | > 1 µM | > 1 µM | > 1 µM | > 1 µM | 0.01 to 0.1 µM | > 1 µM | > 1 µM | 0.1 to 1 µM | 0.01 to 0.1 µM | – | – | – | – | – | – | – | – | –
6 | Cc1nn(C)c2c1-c1nccc(n1)Nc1cc(c(-c3ccc(C(C)(C)F)cn3)cn1)NCC[C@H](C)O2 | – | – | – | – | – | – | – | – | – | – | > 1 µM | 0.01 to 0.1 µM | 0.01 to 0.1 µM | < 0.01 µM | < 0.01 µM | < 0.01 µM | 0.01 to 0.1 µM | < 0.01 µM | < 0.01 µM

The remaining lines, values ahead:

Row | IC50 (EGFR WT; [3]) | IC50 (EGFR WT; read-out: EGFR WT IC50, ATP Km) | IC50 (EGFR LRCS (L858R/C797S); [4]) | IC50 (EGFR LRCS (L858R/C797S); [5]) | IC50 [1, 6] | IC50 [1, 7] | IC50 (EGFR D19CS (del19/C797S); [8]) | IC50 (EGFR D19CS (del19/C797S); [9]) | IC50 [2, 10] | IC50 [2, 11] | IC50 (EGFR WT; read-out: IC50, EGFR WT, 1 mM, ATP 1 mM, EGFR wildtype) | IC50 (EGFR WT; read-out: IC50, EGFR WT, Km, ATP at Km, EGFR wildtype) | IC50 (EGFR LRCS (L858R/C797S); read-out: IC50, EGFR-LRCS, 1 mM, ATP 1 mM, EGFR L858R/C797S) | IC50 (EGFR LRCS (L858R/C797S); read-out: IC50, EGFR-LRCS, Km, ATP at Km, EGFR L858R/C797S) | IC50 ([1]; read-out: IC50, EGFR LRTMCS, 1 mM, ATP 1 mM, EGFR L858R/T790M/C797S) | IC50 ([1]; read-out: IC50, EGFR LRTMCS, Km, ATP at Km, EGFR L858R/T790M/C797S) | IC50 (EGFR D19CS (del19/C797S); read-out: IC50, EGFR-D19CS, 1 mM, ATP 1 mM, EGFR del19/C797S) | IC50 (EGFR D19CS (del19/C797S); read-out: IC50, EGFR-D19CS, Km, ATP at Km, EGFR del19/C797S) | IC50 ([2]; read-out: IC50, EGFR D19TMCS, Km, ATP at Km, EGFR del19/T790M/C797S) | SMILES
7 | > 1 µM | 0.01 to 0.1 µM | 0.1 to 1 µM | 0.01 to 0.1 µM | 0.01 to 0.1 µM | < 0.01 µM | 0.01 to 0.1 µM | 0.01 to 0.1 µM | < 0.01 µM | < 0.01 µM | – | – | – | – | – | – | – | – | – | Cc1nn(C)c2c1-c1nccc(n1)Nc1cc(c(-c3cc(OC(F)F)ccn3)cn1)NCC(C)(C)CO2
8 | > 1 µM | 0.01 to 0.1 µM | 0.1 to 1 µM | < 0.01 µM | < 0.01 µM | < 0.01 µM | 0.01 to 0.1 µM | < 0.01 µM | < 0.01 µM | < 0.01 µM | – | – | – | – | – | – | – | – | – | C[C@H]1CCOc2c(cnn2C)-c2nccc(n2)Nc2cc(c(-c3cnc(OC4COC4)cn3)cn2)N1
9 | > 1 µM | > 1 µM | > 1 µM | > 1 µM | 0.01 to 0.1 µM | < 0.01 µM | > 1 µM | > 1 µM | 0.01 to 0.1 µM | < 0.01 µM | – | – | – | – | – | – | – | – | – | COc1cc(OC2CCN(CC(F)(F)F)CC2)cnc1-c1cnc2cc1N[C@@H](C)CCOc1c(cnn1C)-c1nccc(n1)N2
10 | > 1 µM | > 1 µM | > 1 µM | > 1 µM | > 1 µM | 0.01 to 0.1 µM | > 1 µM | > 1 µM | 0.1 to 1 µM | 0.01 to 0.1 µM | – | – | – | – | – | – | – | – | – | C[C@@H]1CCOc2c(cnn2C)-c2nccc(n2)Nc2cc(c(-c3ncccc3F)cn2)N1
11 | > 1 µM | 0.1 to 1 µM | > 1 µM | < 0.01 µM | 0.01 to 0.1 µM | < 0.01 µM | > 1 µM | 0.01 to 0.1 µM | < 0.01 µM | < 0.01 µM | – | – | – | – | – | – | – | – | – | Cn1ncc2c1OCCCCNc1cc(ncc1-c1ccn(C(F)F)n1)Nc1ccnc-2n1

Where two headings read alike, the source gives them in different places.
